pKi: −log10 of the molar value.
How the values were obtained:
myc-mCRFR2β = target: T1, myc-mCRFR2β (Mus musculus, UniProt Q60748, K372N/R373G/T50I); test: Radioreceptor assay, displacement of [125I-DTyr0]-astressin from COSM6 membranes; conditions: membranes from COSM6 cells transiently expressing myc-mCRFR2β; range in brackets; read-out: inhibitory binding constant Ki
T1 construct: expressed in transfected cells; host or cells: COSM6 cells, transient, pcDNA3; crude membranes
Description: (§1) FIGS. 3A-3D depict the identification of the binding site of astressin on the 3D structure of ECD1-CRFR2β. FIG. 3A is a 2D [^15N, ^1H]-HMQC spectra of ECD1-CRFR2β in the absence and presence of astressin. FIG. 3B is a plot of the normalized chemical shift changes [Δ(δ(^1H))^2+Δ(^15N))^2/5]^1/2 observed in the complex versus the amino acid sequence. FIG. 3C is a surface representation of ECD1-CRFR2β showing the amino acids involved in binding with astressin. FIG. 3D is a competitive displacement by astressin of [^125I-DTyr^0]-astressin bound to membranes from COSM6 cells transiently expressing myc-mCRFR2β (●); myc-mCRFR2β (K92Q) (□); myc-mCRFR2β (R112E) (Δ); myc-mCRFR2β (I67E)(⋄); myc-mCRFR2β (R112W) (∇).
(§2) Radioreceptor assays. Mutant receptors or myc-mCRFR2β, were transiently transfected into COSM6 cells followed by binding to crude membrane preparations. Binding to myc-mCRFR2β was performed in triplicate, as described (See Perrin et al., 2003).

myc-mCRFR2β (R112E) = target: T2, myc-mCRFR2β (R112E) (Mus musculus, UniProt Q60748, K372N/R373G/R92E/T50I); test: Radioreceptor assay, mutant receptor R112E; conditions: COSM6 membranes, range in brackets, read-out: inhibitory binding constant Ki
T2 construct: expressed in transfected cells; host or cells: COSM6 cells, transient, pcDNA3; crude membranes
Description: as §1, §2

myc-mCRFR2β (I67E) = target: T3, myc-mCRFR2β (I67E) (Mus musculus, UniProt Q60748, I47E/K372N/R373G/T50I); test: Radioreceptor assay, mutant receptor I67E; conditions: COSM6 membranes, range in brackets, read-out: inhibitory binding constant Ki
T3 construct: expressed in transfected cells; host or cells: COSM6 cells, transient, pcDNA3; crude membranes
Description: as §1, §2

myc-mCRFR2β (R112W) = target: T4, myc-mCRFR2β (R112W) (Mus musculus, UniProt Q60748, K372N/R373G/R92W/T50I); test: Radioreceptor assay, mutant receptor R112W; conditions: COSM6 membranes, range in brackets, read-out: inhibitory binding constant Ki
T4 construct: expressed in transfected cells; host or cells: COSM6 cells, transient, pcDNA3; crude membranes
Description: as §1, §2

myc-mCRFR2β (K92Q) = target: T5, myc-mCRFR2β (K92Q) (Mus musculus, UniProt Q60748, K372N/K72Q/R373G/T50I); test: Radioreceptor assay, mutant receptor K92Q; conditions: COSM6 membranes, range in brackets, read-out: inhibitory binding constant Ki
T5 construct: expressed in transfected cells; host or cells: COSM6 cells, transient, pcDNA3; crude membranes
Description: as §1, §2

[1] = target: ECD1-CRFR2β (amino acids 39-133 of mCRFR2β) (Mus musculus, UniProt Q60748, T50I); conditions: read-out: inhibitory binding constant; soluble protein fragment ECD1-CRFR2β; range in brackets; cited from earlier work

astressin
pKi (myc-mCRFR2β): 8.96 | pKi (myc-mCRFR2β (R112E)): 8.14 | pKi (myc-mCRFR2β (I67E)): 6.89 | pKi (myc-mCRFR2β (R112W)): 8.72 | pKi (myc-mCRFR2β (K92Q)): 8.51 | pKi [1]: 7.68

Source: patent US7869958B2, “Structure-based modulators of B1 G-protein coupled receptors” (priority 2004, dated 2011)
